For the assay, the target named is Endothelin-1 receptor (Homo sapiens, UniProt P25101). Description: In vitro inhibition of [125I]ET1 binding to CHO cells expressing recombinant human Endothelin A receptor. It counts as cell-based.

Protein sequences, listed by entry. Tags and fused reporters are not part of them.
UniProt P25101, whole entry: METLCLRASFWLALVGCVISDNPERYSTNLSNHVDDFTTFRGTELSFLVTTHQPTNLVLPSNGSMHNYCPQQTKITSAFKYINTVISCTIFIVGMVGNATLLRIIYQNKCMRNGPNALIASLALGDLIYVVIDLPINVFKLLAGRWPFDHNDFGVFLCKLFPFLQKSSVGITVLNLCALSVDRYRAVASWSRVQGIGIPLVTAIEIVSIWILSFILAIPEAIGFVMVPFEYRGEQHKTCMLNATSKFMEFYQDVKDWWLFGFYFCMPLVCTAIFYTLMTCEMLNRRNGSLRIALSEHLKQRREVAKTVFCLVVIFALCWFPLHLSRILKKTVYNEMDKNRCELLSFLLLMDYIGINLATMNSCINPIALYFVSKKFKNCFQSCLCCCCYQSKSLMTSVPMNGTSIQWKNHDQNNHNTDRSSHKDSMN

As a reminder, the pIC50 is the negative decadic logarithm of the IC50, by convention in mol/L.

pIC50: −log10 of the molar value.

Regarding `CCOc1ccc2c(c1)[C@H](c1cc(OC)c(OC)c(OC)c1)N(CC(=O)O)[C@@H]2c1ccc2c(c1)OCO2`, the pIC50 was 5.96.

For the origin of these results see ChEMBL document CHEMBL1134124, “Isoindolines: a new series of potent and selective endothelin-A receptor antagonists” (Bioorg Med Chem Lett, 2001).
